The target of the experiment is Voltage-gated inwardly rectifying potassium channel KCNH2 (Homo sapiens, UniProt Q12809). The experiment is described as follows: Displacement of [3H]dofetilide from human ERG expressed in HEK293 cell membranes.

Chains of the proteins cited; added tags and fusions are not shown. Lines headed by an entry give the natural chain unless they say otherwise; changes in a name come on top.
UniProt Q12809: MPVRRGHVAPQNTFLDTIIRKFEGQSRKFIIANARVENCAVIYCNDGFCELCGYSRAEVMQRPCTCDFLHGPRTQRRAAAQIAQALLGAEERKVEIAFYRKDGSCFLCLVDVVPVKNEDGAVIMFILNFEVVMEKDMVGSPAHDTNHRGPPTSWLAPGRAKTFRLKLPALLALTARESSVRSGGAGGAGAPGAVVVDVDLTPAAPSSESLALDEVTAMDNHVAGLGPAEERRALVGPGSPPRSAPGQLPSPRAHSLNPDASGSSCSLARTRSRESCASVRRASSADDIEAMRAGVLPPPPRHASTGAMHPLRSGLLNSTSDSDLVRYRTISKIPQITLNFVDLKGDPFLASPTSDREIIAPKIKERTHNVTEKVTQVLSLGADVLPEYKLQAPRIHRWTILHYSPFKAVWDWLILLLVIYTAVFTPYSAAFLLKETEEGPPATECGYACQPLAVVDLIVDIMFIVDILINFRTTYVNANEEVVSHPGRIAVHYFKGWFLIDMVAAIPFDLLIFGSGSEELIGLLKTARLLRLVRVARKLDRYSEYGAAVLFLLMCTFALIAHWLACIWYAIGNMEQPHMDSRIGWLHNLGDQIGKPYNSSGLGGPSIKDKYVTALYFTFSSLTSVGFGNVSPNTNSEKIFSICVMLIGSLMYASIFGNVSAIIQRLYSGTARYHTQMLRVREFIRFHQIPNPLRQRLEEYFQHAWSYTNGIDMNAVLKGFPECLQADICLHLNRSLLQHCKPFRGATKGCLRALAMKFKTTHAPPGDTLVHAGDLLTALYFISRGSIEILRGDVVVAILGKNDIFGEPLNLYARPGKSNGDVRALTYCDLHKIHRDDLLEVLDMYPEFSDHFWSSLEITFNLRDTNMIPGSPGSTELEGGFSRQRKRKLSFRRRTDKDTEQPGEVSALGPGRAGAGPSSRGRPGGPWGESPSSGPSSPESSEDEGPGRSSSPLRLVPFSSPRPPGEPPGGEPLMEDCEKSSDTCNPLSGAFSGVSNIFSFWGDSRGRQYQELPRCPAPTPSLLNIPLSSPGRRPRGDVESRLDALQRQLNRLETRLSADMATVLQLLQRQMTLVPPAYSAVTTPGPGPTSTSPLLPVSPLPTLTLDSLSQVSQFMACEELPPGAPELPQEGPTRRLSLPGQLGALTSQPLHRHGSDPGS

Usually IC50 stands for the point on the concentration scale where inhibition reaches its midpoint. A high value points to weaker potency. `Cc1cccnc1C(=O)N1CCC(C)(N2CCC(N(c3ccccc3)c3cccnc3)CC2)CC1` gave an IC50 of 410 nM.
